Measured values from patent US20090325959A1 (priority 2008, published 2009).

Test system: human monocytes
Assay: Human monocyte cytokine secretion assay (LPS-stimulated)
Assay type: cell-based
Settings: potencies approximately 170 nM to 1 μM

Compound: NC(=O)Cn1ccc2cc(CN3CC[C@@H](Nc4cccc5cnccc45)C3)ccc21 [Compound 2.059, (R)-2-(5-((3-(isoquinolin-5-ylamino)pyrrolidin-1-yl)methyl)-1H-indol-1-yl)acetamide]
- secretion of IL-1β, TNF-α and IL-9 from LPS-stimulated human monocytes: dose-dependently reduced
